75 compounds from PubChem BioAssay AID504577 (NMMLSC, 2011) can be followed below.

Only a part is listed here, and it is no random draw. Active and inactive are the calls of the source. No stated cut-off is given here; in the data, active means response mostly above about 7.3% (no sharp cut-off); inactive means mostly below about 5.4%.

This assay can be described thus: yeast vacuolar ATPase proton transport modulators – pHLuorin cytosolic pH fluorescence, primary screen (AID 504577). Further: actives read high. The note with it: S. cerevisiae, at 10 µM, hits give high values.
With `CCOC(=O)N1CCC(Nc2cccc(C)c2)CC1`, the response was inactive: 0.23%.
On to `COc1cc(C(=O)NCC2(N(C)C)CCCCC2)ccc1OC(F)F`, for which the response was inactive: -1.8%.
Regarding `CCCCOc1ccc(C(=O)NCC2(N3CCOCC3)CCCCC2)cc1`, the response is inactive: -5.04%.
Consider `O=P1(N(CCCl)CCCl)SCCCS1`, for which the response was inactive: -3.72%.
Under `O=C(NCC1(N2CCCCC2)CCCCC1)c1ccc(F)cc1` stands inactive: -2.82%; under `CCOC(=O)N1CCC(Nc2ccc(F)cc2)CC1`, inactive: 1.19%; under `COc1ccc(NC2CCN(CCc3ccccc3)CC2)c(OC)c1`, inactive: 6.72%.
With `O=C1CCN(Cc2ccccc2)CC1`, the response is inactive: 7.7%.
Under `CCOc1ccc(C)cc1CN(CCCl)CCCl` stands inactive: 0%; under `N#CC1(Nc2ccccc2)CCN(Cc2ccccc2)CC1`, inactive: -1.65%.
Turning to `O=C(NCC1(N2CCCCC2)CCCCC1)c1ccc(Cl)s1`, the response was inactive: -4.08%.
In the case of `O=C(OC1CN2CCC1CC2)C1c2ccccc2Oc2ccccc21` (stereo not given), the response is inactive: 2.56%.
Under `COc1ccc(Cl)cc1C(=O)NCC1(N2CCOCC2)CCCCC1` stands inactive: -1.36%.
Under `CCOC(=O)N1CCC(Nc2ccc(OC)cc2)CC1` stands inactive: 1.4%; under `O=C(NCC1(N2CCCCC2)CCCCC1)c1ccc(Cl)nc1`, inactive: -1.35%.
Regarding `Cc1cc(C)cc(N(C(=O)c2ccccc2)C2CCN(C(=O)OC(C)(C)C)CC2)c1`, the response was inactive: -1.08%.
`O=C(NCC1(N2CCOCC2)CCCCC1)c1cc2ccccc2o1`: the response was inactive: -1.81%.
Under `CSc1ccccc1C(=O)NCC1(N2CCCCC2)CCCCC1` stands inactive: -1.56%.
On to `Cc1cccc(NC2(C#N)CCN(Cc3ccccc3)CC2)c1`, for which the response was inactive: -0.79%.
Under `COc1ccc(C(=O)NCC2(N3CCCCC3)CCCCC2)cc1` stands inactive: -0.29%.
Under `COc1ccc(C(=O)NCC2(N3CCCCC3)CCCCC2)c(OC)c1OC` stands inactive: -0.81%.
On to `CC(C)(C)OC(=O)N1CCC(N(C(=O)c2ccccc2)c2ccc(F)cc2)CC1`, for which the response was inactive: -1.81%.
Under `O=C(NCC1(N2CCCCC2)CCCCC1)c1ccc(=O)[nH]c1` stands inactive: -2.5%; under `O=C(NCC1(N2CCCCC2)CCCCC1)c1cccs1`, inactive: -5.73%.
For the compound `Cc1ccc(C(=O)NCC2(N(C)C)CCCCC2)o1`, the response was inactive: 1.71%.
As to `CCCOc1ccc(C(=O)NCC2(N(C)C)CCCCC2)cc1OC`, the response is inactive: 0.68%.
Under `CN1CCC(Nc2cccc(F)c2)CC1` stands inactive: 6.43%; under `O=C(NCC1(N2CCCCC2)CCCCC1)c1cncc(Br)c1`, inactive: 4.11%; under `COc1cc(OC)c(C(=O)NCC2(N(C)C)CCCCC2)cc1OC`, inactive: -4.49%.
`O=C(NCC1(N2CCOCC2)CCCCC1)c1cc(F)c(F)cc1Cl`: the response is inactive: -1.51%.
Under `CC(C)c1ccc(NC2CCN(C(=O)OC(C)(C)C)CC2)cc1` stands inactive: -3.62%; under `COc1ccc(CN(CCCl)CCCl)cc1Cl`, inactive: -0.39%.
`CN(C)c1cccc(C(=O)NCC2(N3CCCCC3)CCCCC2)c1`: the response was inactive: 3.68%.
`O=C(NCC1(N2CCOCC2)CCCCC1)c1cc(=O)[nH]c2ccccc12`: the response was inactive: -1.27%.
For the compound `COc1cc(C(=O)NCC2(N3CCCCC3)CCCCC2)ccc1OC(F)F`, the response was inactive: 2%.
For `COc1ccc(NC2CCN(C(=O)OC(C)(C)C)CC2)cc1`, the response is inactive: 0.9%.
For the compound `CC(C)c1ccc(C(=O)NCC2(N3CCOCC3)CCCCC2)cc1`, the response was inactive: -1.21%.
With `CN1CCN(CCOC(=O)C(O)(c2ccccc2)c2ccccc2)CC1`, the response was inactive: 1.83%.
Under `O=C(NCC1(N2CCCCC2)CCCCC1)c1cccc(C(F)(F)F)c1` stands inactive: 4.29%.
Under `CCN1CCC(Nc2ccc(Cl)cc2)CC1` stands inactive: 2.48%; under `N#CC1(Nc2ccccc2)CCN(CCc2ccccc2)CC1`, inactive: 1.57%; under `CSc1ccc(C(=O)NCC2(N3CCOCC3)CCCCC2)cc1`, inactive: -0.27%.
Under `O=C(NCC1(N2CCCCC2)CCCCC1)c1cccc([N+](=O)[O-])c1` stands inactive: -1.73%; under `O=C(NCC1(N2CCCCC2)CCCCC1)c1ccc(OC(F)F)cc1`, inactive: -1.77%.
Take `CN(C)C1(CNC(=O)c2cccc(C#N)c2)CCCCC1`: the response is inactive: 0.12%.
On to `c1ccc(CN2CCC(Nc3ccccc3)CC2)cc1`, for which the response was inactive: 2.24%.
For `CCCN1CCC(Nc2cc(OC)cc(OC)c2)CC1`, the response was inactive: -2.79%.
`Cc1cc(N(CCCl)CCCl)ccc1C=O`: the response is inactive: -0.64%.
For `N#Cc1ccc(C(=O)NCC2(N3CCCCC3)CCCCC2)cc1`, the response is inactive: 3.72%.
Take `CC(C)(C)OC(=O)N1CCC(N(C(=O)c2ccccc2)c2ccc(Cl)cc2)CC1`: the response was inactive: 2.76%.
Consider `O=C(OC1CN2CCC1CC2)C1c2ccccc2C=Cc2ccccc21` (stereo not given), for which the response is inactive: -0.78%.
Take `CCOC(=O)N1CCC(Nc2ccc(C)cc2)CC1`: the response is inactive: 1.74%.
Consider `N/C(=N\O)c1c(N)no[n+]1[O-]`, for which the response is inactive: 1.73%.
Under `COc1ccc(C(=O)NCC2(N3CCOCC3)CCCCC2)cc1OC` stands inactive: 0.82%.
As for `COc1cc(C(=O)NCC2(N3CCOCC3)CCCCC2)cc(OC)c1C`, the response is inactive: -1.92%.
Under `O=C(NCC1(N2CCOCC2)CCCCC1)c1cc(Br)ccc1Cl` stands inactive: 0.07%.
In the case of `CN1CCC(Nc2ccc(Cl)cc2)CC1`, the response was inactive: -1.62%.
On to `COc1cccc(C(=O)N(c2cc(C)cc(C)c2)C2CCN(C(=O)OC(C)(C)C)CC2)c1`, for which the response is inactive: 0.71%.
The same measure for `COc1cc(OC)cc(C(=O)NCC2(N3CCOCC3)CCCCC2)c1`: inactive: -0.93%; for `CCC(CO)(C(=O)OC1CN2CCC1CC2)c1ccccc1` (stereo not given): inactive: -1.13%.
With `CC(C)(C)OC(=O)N1CCC(Nc2ccccc2)CC1`, the response was inactive: 2.74%.
Turning to `O=C(O)C1(Nc2ccccc2)CCN(Cc2ccccc2)CC1`, the response is inactive: -0.87%.
As to `CCCOc1ccc(C(=O)NCC2(N(C)C)CCCCC2)cc1`, the response is inactive: -1.13%.
The same measure for `CCOc1ncccc1C(=O)NCC1(N2CCOCC2)CCCCC1`: inactive: -0.03%.
`CN1CCC(Nc2ccc(F)c(Cl)c2)CC1`: the response was inactive: -0.55%.
For the compound `O=C(NCC1(N2CCCCC2)CCCCC1)c1ccco1`, the response is inactive: -1.56%.
Take `CN(C)c1ccc(C(=O)NCC2(N3CCCCC3)CCCCC2)cc1`: the response is inactive: 0.93%.
As to `Cn1c(=O)[nH]cc(N(CCCl)CCCl)c1=O`, the response was inactive: 8%.
Turning to `Cc1ccccc1NC1(C#N)CCN(Cc2ccccc2)CC1`, the response is inactive: 3.23%.
Under `CCN1CCC(Nc2cccc(F)c2)CC1` stands inactive: 8.38%; under `Cc1ccc(C(=O)NCC2(N3CCCCC3)CCCCC2)o1`, inactive: 2.82%; under `Fc1ccccc1NC1CCN(Cc2ccccc2)CC1`, inactive: -1.64%.
The same measure for `Cc1ccc(NC2(C#N)CCN(Cc3ccccc3)CC2)cc1`: inactive: -4.58%; for `CC(=O)N(c1ccccc1)C1CCNCC1`: inactive: 1.64%; for `COc1cc(OC)cc(C(=O)NCC2(N3CCCCC3)CCCCC2)c1`: inactive: -1.35%.
